Test: Drug concentration that reaches 50% of antagonism index (AI); No reversion at 10 uM concentration.
Format: functional

For `CCCCC1=CC2Cc3nc4ccccc4c(N)c3C(C1)C2` (stereo unspecified), the AI50 was “No reversion”.

Source: ChEMBL document CHEMBL1132351, “Synthesis, in vitro pharmacology, and molecular modeling of very potent tacrine-huperzine A hybrids as acetylcholinesterase inhibitors of potential interest for the treatment of Alzheimer's disease” (J Med Chem, 1999)
